According to US11453711B2, “Fusion proteins of GLP-1 and GDF15 and conjugates thereof” (BEIJING QL BIOPHARMACEUTICAL CO., LTD., priority 2019, dated 2022):

Experiment: Pharmacokinetic measurement in mouse, single sc dose 30 nmol/kg, plasma ELISA
Details: single sc dose 30 nmol/kg

Semaglutide [reference compound]
AUC0-24 h: 0.6147 µM·h
